This is an account of results in the kinase profiling compilation of Christmann-Franck et al. (2016).

Amino acid sequences for entries named in this document (tags omitted). A change or cut given only in a name is not applied to a line headed by its entry.
UniProt P52333: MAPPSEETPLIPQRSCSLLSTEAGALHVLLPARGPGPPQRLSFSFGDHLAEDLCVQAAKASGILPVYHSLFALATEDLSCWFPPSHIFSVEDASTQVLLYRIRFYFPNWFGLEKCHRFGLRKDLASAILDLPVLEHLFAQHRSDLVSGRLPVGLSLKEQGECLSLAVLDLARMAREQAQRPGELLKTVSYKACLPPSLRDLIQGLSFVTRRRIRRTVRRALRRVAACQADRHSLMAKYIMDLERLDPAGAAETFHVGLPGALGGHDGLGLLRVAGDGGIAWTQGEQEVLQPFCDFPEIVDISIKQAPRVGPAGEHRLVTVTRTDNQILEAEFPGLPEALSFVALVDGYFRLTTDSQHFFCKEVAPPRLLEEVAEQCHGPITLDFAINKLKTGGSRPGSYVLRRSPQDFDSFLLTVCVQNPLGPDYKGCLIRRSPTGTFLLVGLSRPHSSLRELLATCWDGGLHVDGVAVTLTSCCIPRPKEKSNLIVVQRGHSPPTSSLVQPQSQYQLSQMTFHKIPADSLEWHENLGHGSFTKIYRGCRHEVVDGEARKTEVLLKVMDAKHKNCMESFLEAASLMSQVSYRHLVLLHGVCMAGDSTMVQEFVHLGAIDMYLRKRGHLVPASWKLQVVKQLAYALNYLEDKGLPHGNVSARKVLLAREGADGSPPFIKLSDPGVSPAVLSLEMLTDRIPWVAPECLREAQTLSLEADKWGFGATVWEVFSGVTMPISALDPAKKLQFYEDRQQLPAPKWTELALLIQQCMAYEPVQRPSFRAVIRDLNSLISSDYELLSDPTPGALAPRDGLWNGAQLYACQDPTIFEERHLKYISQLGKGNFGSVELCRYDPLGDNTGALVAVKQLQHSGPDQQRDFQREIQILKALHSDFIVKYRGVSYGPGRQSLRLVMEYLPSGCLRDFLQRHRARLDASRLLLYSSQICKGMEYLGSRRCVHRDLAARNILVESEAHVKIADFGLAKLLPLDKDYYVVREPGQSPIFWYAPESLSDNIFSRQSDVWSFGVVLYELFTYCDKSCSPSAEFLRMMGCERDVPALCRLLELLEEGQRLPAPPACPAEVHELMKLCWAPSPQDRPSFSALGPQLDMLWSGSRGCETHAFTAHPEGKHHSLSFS

Assay in all cases: KINOMEscan competition binding
Settings in all cases: compound 10.0 µM

One test has as its target PRKACA (human) (UniProt P17612).
Another test addresses PRKACB (human) (UniProt P22694).
Test [1] deals with JAK3 JH1 catalytic (human) (UniProt P52333).

Consider `CC1=C(C(=O)Nc2cc3cn[nH]c3cc2F)C(c2ccc(C(F)(F)F)cc2)CC(=O)N1` (stereo not drawn), for which the kinase still bound, per cent of control on PRKACA (human) worked out at 4.2%; at PRKACB (human), 6.4%; in test [1], 3.2%.
